{"source": "paper PMC8630191", "molecular_target": "3xFLAG-tagged PP2Acβ ΔL mutant (Leu 309 deleted) (human) (UniProt P62714)", "experiment": "affinity purification with mass spectrometry; 3xFLAG-tagged catalytic subunit (WT or ΔL) transfected in FreeStyle 293F cells; FLAG M2 affinity gel, 3 h at 4 °C; lysis and wash buffer 50 mM Tris pH 7.5, 500 mM NaCl, 0.5% Triton X-100; eluted with 3XFLAG peptide; label-free quantitative LC-MS/MS on unique peptides, three replicates"}
{"substance": "B56γ, PP2A regulatory subunit (from UniProt Q13362 1-524) (natural protein)", "values": [{"measurement": "fold reduction of binding, ΔL against WT", "result": 2, "unit": "fold"}]}
